According to paper PMC9309012 (Journal of medicinal chemistry, 2021):

System: HeLa cells
Test: Cytotoxicity assay in human HeLa cells
Format: cell-based
Settings: 48 h, described in words (Fig. 2-4)

| Substance | human cytotoxicity |
| --- | --- |
| (Triethylphosphine)gold(I) iodide [Compound 26] | decreased but either to a lesser extent or to below the assay sensitivity |
| (Trimethylphosphine)gold(I) iodide [Compound 25] | decreased but either to a lesser extent or to below the assay sensitivity |
